Reference: patent publication US6949581B2, “Water-soluble mono-PEGylated tetrapyrrole derivatives for photodynamic therapy and method of production” (CeramOptec Industries, Inc., priority 2003, dated 2005)

System: HeLa (human cervix carcinoma cells)
Type: cell-based
Procedure: To determine dark toxicity of the water-soluble derivative (35) and water-soluble salt of pheophorbide a (5) with N-methyl-D-glucamine (prepared according to U.S. application Ser. […] The cells were washed with pure DMEM and treated with 10% formalin for 15 minutes at room temperature. The cells were twice washed with water, incubated for 15 minutes with 0.1% solution of crystal violet (50 μl/well), then washed with water and treated with ethanol (100 μl/well). Optical densities of ethanol solutions formed were determined with Specord 100 (Analytik Jena AG, Germany) spectrophotometer at 594 nm to monitor cell survival. Values are expressed as percentages of non-incubated controls. For each incubation concentration eight experiments were performed.

salt of pheophorbide a (5) with N-methyl-D-glucamine
IC50 dark toxicity (cytotoxicity): 20 µg/mL | IC80 dark toxicity (cytotoxicity): 100 µg/mL
